Screening results from PubChem BioAssay.
uPA surface inh: blocks generation of uPA at the cell surface; Potency, µM (titrated, usually from 38.3 µM), without a hit: at the top dose activity change, negative = inhibition, hits mostly inhibitors; cell surface uPA generation assay, qHTS; 330,000 compounds, 0.31% hits; active = well fitted inhibition curve with a large enough effect; inconclusive = small, poorly fitted or top-dose-only effect; inactive = no such curve, though single readings can be large or run the other way; tested in mouse RAW 264.7 cells; also: potency is read from the fitted curve at half-maximal effect; % is scaled to controls: 0 for no effect and ±100 for the full control effect; nearly all actives have a fitted effect of over 55% in size
TDP1 cell noCPT: qHTS for Inhibitors of human tyrosyl-DNA phosphodiesterase 1 (TDP1): qHTS in cells in absence of CPT | DT40 Tdp1-/- hTDP1 cells, no CPT, ATP luminescence, 48 h | 420,000 compounds, 15% hits | Potency, µM (top dose mostly 46.2 µM), for inactives: at the highest dose activity change, negative = growth inhibition, most hits filed as inhibitors; also: potency is read from the fitted curve at half-maximal effect; % is scaled to controls: 0 for no effect and ±100 for the full control effect; nearly all actives have a fitted effect of over 55% in size
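Chicken DT40 Tdp1-/- cells complemented with human TDP1, screened without camptothecin (DMSO vehicle only), 400 cells/well. Compounds pin-transferred, cells incubated at 37 °C for at least 48 hr. Growth read as ATP-dependent luminescence (CellTiter-Glo, 30 min at RT).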
miR-21 FLuc: miR-21 reporter, rising signal | AID 2288 | HeLa miR-21 FLuc reporter, luciferase, 48 h | 340,000 tested, under 10 active | Potency, µM (titrated, usually from 38.3 µM), for the others: at the top dose reporter change, positive = more light; active = well fitted rising curve with a large enough effect; inconclusive = small, poorly fitted or top-dose-only effect; inactive = no such curve, though single readings can be large or run the other way;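 also: % of control where 0% means no effect; miR-21 action dims this reporter so a rising signal means less miR-21 action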
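HeLa cells endogenously expressing miR-21, stably carrying CMV-driven firefly luciferase with a downstream miR-21 binding site, 2000 cells/well. Titrations up to approximately 40 uM, 48 hours; luciferase luminescence read.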
TDP1 cell CPT: growth inhibition of DT40 Tdp1-/-;hTDP1 cells with camptothecin (screen for TDP1 inhibitors). chicken DT40 Tdp1-/-;hTDP1 cells + 20 nM CPT, ATP luminescence, 48 h. 420,000 compounds, 12% hits. AID 686979. Potency, µM (series often up to 46.2 µM), for inactives: at the top dose activity change, negative = growth inhibition, usual class: inhibitors; also: potency is read from the fitted curve at half-maximal effect; % is scaled to controls: 0 for no effect and ±100 for the full control effect; nearly all actives have a fitted effect of over 55% in size
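Chicken DT40 Tdp1-/- cells complemented with human TDP1, 400 cells/well, exposed to compounds plus 20 nM camptothecin for at least 48 h at 37 C; viability read as ATP content by CellTiter-Glo luminescence.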
TDP1 inh: blocks human tyrosyl-DNA phosphodiesterase 1. Q9NUW8. 350,000 compounds, 0.28% hits. recombinant TDP1, AlphaScreen DNA substrate cleavage. Potency, µM (highest dose often 130 µM), without a hit: top-dose activity change, negative = inhibition, actives largely listed as inhibitors; also: potency is read from the fitted curve at half-maximal effect; % is scaled to controls: 0 for no effect and ±100 for the full control effect; nearly all actives have a fitted effect of over 40% in size
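Recombinant E. coli-expressed Tdp1 (1 nM) preincubated with compound 15 min at RT, then 5'-biotin/3'-phosphotyrosine-FITC DNA substrate (15 nM) added for 5 min. AlphaScreen beads (10 ug/ml) added, 10 min RT; tyrosine-FITC cleavage read as signal loss.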
Starred values were filed as active, the others as inactive; ? = inconclusive; . = not tested or not shown; [ ] = remark or other dose. Most compounds without a hit are left out; they make up all but 16% or so of the library. Unless noted, calls follow the shape of the dose curve; as a rule, active = well fitted curve in the direction sought with a large enough effect; inconclusive = small, poorly fitted or top-dose-only effect, or another doubt; inactive = no such curve, though single readings can be large; an effect the other way counts as inactive or inconclusive.

Sample of the layout:
| canonical_smiles | uPA surface inh | TDP1 cell noCPT | miR-21 FLuc | TDP1 cell CPT | TDP1 inh |
| --- | --- | --- | --- | --- | --- |
| CCOC(=O)c1c(/N=C/C2=C(O)CCCC2=O)sc(C)c1C | -5% | 1% | 2% | -12% | 0% |
| CCOC(=O)c1sc(N=NC2=C(O)CC(C)(C)CC2=O)c(C(=O)OCC)c1C | -2% | 15µM* | 0% | ? | 0% |
| CCN(CC)C(=S)S | . | ? | . | 24µM* | 6% |

This part in full, repeating the preview:
| canonical_smiles | uPA surface inh | TDP1 cell noCPT | miR-21 FLuc | TDP1 cell CPT | TDP1 inh |
| --- | --- | --- | --- | --- | --- |
| CCOC(=O)c1c(/N=C/C2=C(O)CCCC2=O)sc(C)c1C | -5% | 1% | 2% | -12% | 0% |
| CCOC(=O)c1sc(N=NC2=C(O)CC(C)(C)CC2=O)c(C(=O)OCC)c1C | -2% | 15µM* | 0% | ? | 0% |
| CCN(CC)C(=S)S | . | ? | . | 24µM* | 6% |
| Cc1ccc(C(=O)c2sc(Nc3ccccc3)c(C#N)c2N)cc1 | -6% | ? | -14% | ? | 7% |
| CCOC(=O)c1ccc(Nc2sc(C(=O)c3cccc([N+](=O)[O-])c3)c(N)c2C#N)cc1 | 4% | 0.73µM* | 11% | 1µM* | 5% |
| COc1ccc(C(C)C)cc1S(=O)(=O)NCCc1c(C)[nH]c2c(Cl)cccc12 | . | ? | ? | 29µM* | 5% |
| Cc1nc(NCCc2ccc(S(N)(=O)=O)cc2)c2c(C)c(C)sc2n1 | -15% | 15µM* | 20% | 16µM* | 5% |
| Cc1nc(NCc2ccc(S(N)(=O)=O)cc2)c2c(C)c(C)sc2n1 | -4% | ? | -2% | ? | -9% |
| Cc1nc(NCCNC(=O)c2ccco2)c2c(C)c(C)sc2n1 | 11% | 21µM* | -3% | ? | 7% |
| Nc1nc(Nc2ccccc2)nc(NC2CCCCC2)c1[N+](=O)[O-] | -4% | ? | 5% | 13µM* | . |
| CNc1nc(N)c([N+](=O)[O-])c(NC2CCCCC2)n1 | -9% | ? | -15% | -4% | . |
| COc1cccc(CN2C(=O)C3(C(C#N)=C(N)OC4=C3C(=O)CCC4)c3ccccc32)c1 (centres undefined) | -7% | 0.92µM* | -6% | 0.65µM* | 3% |
| Cc1cc(C)nc(NC(=O)c2c(-c3ccccc3Cl)noc2C)c1 | 2% | 21µM* | -3% | ? | 1% |
| Cc1onc(-c2ccccc2Cl)c1C(=O)Nc1ccccc1O | -1% | 18µM* | 18% | ? | 7% |
| COC(=O)c1c(NC(=O)c2nc3nc(C)cc(C(F)F)n3n2)sc2c1CCC2 | 6% | 16µM* | -4% | ? | -4% |
| CC(C)c1cc(-c2cc(C(=O)Nc3ccccc3)on2)nc(NC2CCCC2)n1 | -7% | ? | . | 26µM* | . |
| Cc1cc(C(F)F)n2nc(C(=O)Nc3sc4c(c3C(N)=O)CCC4)nc2n1 | 1% | ? | -16% | ? | ? |
| CN(CC(=O)Nc1ccccc1Br)C(=O)CCc1ccccc1 | -3% | -7% | -1% | 30% | -15% |
| CN(C)c1nc(N)nc(CSc2nc3c(c(=O)n(C)c(=O)n3C)n2Cc2ccccc2F)n1 | -1% | -7% | 1% | -1% | 2% |
| O=C(COc1ccc(S(=O)(=O)N2CCCC2)cc1)Nc1ccc(F)cc1 | 4% | -23% | 0% | ? | . |
| Cc1c(NS(=O)(=O)c2cccc(C(=O)NCc3ccccc3Cl)c2)c(=O)n(-c2ccccc2)n1C | 0% | ? | . | ? | -3% |
| O=C(NCCc1ccccc1)c1cnc2sccn2c1=O | -6% | -20% | -56% | -10% | 0% |
| Cc1onc(-c2ccccc2Cl)c1C(=O)N(C)C1CCCCC1 | ? | 3.7µM* | 18% | 4.6µM* | 7% |
| Cc1nc(NC(=O)c2c(-c3ccccc3Cl)noc2C)sc1C | 9% | ? | 19% | 16µM* | 6% |

Rewritten with values under each structure: 3 of the compounds above
Values in the order – uPA surface inh | TDP1 cell noCPT | miR-21 FLuc | TDP1 cell CPT | TDP1 inh
O=C(COc1ccc(S(=O)(=O)N2CCCC2)cc1)Nc1ccc(F)cc1
    4% | -23% | 0% | ? | .
COC(=O)c1c(NC(=O)c2nc3nc(C)cc(C(F)F)n3n2)sc2c1CCC2
    6% | 16µM* | -4% | ? | -4%
CN(C)c1nc(N)nc(CSc2nc3c(c(=O)n(C)c(=O)n3C)n2Cc2ccccc2F)n1
    -1% | -7% | 1% | -1% | 2%

Continuation.
| canonical_smiles | uPA surface inh | TDP1 cell noCPT | miR-21 FLuc | TDP1 cell CPT | TDP1 inh |
| --- | --- | --- | --- | --- | --- |
| COC(=O)c1c(NC(=O)c2c(-c3ccccc3Cl)noc2C)sc2c1CCC2 | 6% | 18µM* | -2% | 18µM* | 4% |
| Cc1onc(-c2ccccc2Cl)c1C(=O)Nc1ccccc1 | 6% | ? | 14% | 12µM* | 2% |
| COC(=O)c1c(NC(=O)c2c(C)noc2C)sc2c1CCCCCC2 | . | . | -1% | . | 4% |
| Cc1nnc(NC(=O)c2c(-c3ccccc3Cl)noc2C)s1 | 3% | -29% | 5% | -1% | 3% |
| CC[C@@H]1CN(C)[C@H]2Cc3c([nH]c4ccccc34)C(=O)C[C@@H]1[C@@H]2C(=O)OC | 5% | -13% | . | -2% | . |
| O=c1oc2ccccc2c(O)c1Sc1c(O)c2ccccc2oc1=O | 3% | ? | . | -22% | . |
| CCCn1c(=O)n(-c2cc(Cl)c(OC)cc2OC)c(=O)c2c3c(sc21)CN(C(C)=O)CC3 | . | ? | -24% | ? | -5% |
| O=c1cc(-c2ccc(F)cc2)nc(SCc2nc(-c3ccccc3Cl)no2)[nH]1 | . | -24% | -7% | -30% | 3% |
| Cc1cc(C)nc(NC(=O)CCCC(=O)O)c1 | 6% | 5% | -5% | 3% | 2% |
| O=C(Nc1ccccc1)c1cc(-c2ccccc2Cl)no1 | 4% | 16µM* | -62% | 16µM* | 2% |
| COc1ccc(NC(=O)c2cc(-c3ccccc3Cl)no2)cc1 | -4% | -27% | -32% | -28% | 1% |
| Cc1cc(C)nc(NC(=O)c2c(F)c(F)c(F)c(C(=O)Nc3cc(C)cc(C)n3)c2F)c1 | ? | 16µM* | . | ? | . |
| COc1cc(C(=O)NNC(=O)c2n[nH]c3ccccc23)cc(OC)c1OC | 2% | -3% | . | -8% | 2% |
| C=C1C2CC[C@@]3(C)C(c4ccoc4)OC(=O)C[C@@]13OC1CC(OC(C)=O)C(C)(C)C(CC(=O)OC)[C@@]12C (some centres undefined) | . | 12µM* | . | 13µM* | 14%[56.1 µM] |
| COc1cccc(NC(=O)C(=O)NCCc2csc(-c3ccc(C(F)(F)F)cc3)n2)c1 | . | -28% | -55% | ? | 4% |
| COc1ccc(-c2nc(CCNC(=O)c3cccs3)cs2)cc1 | -10% | 21µM* | 8% | 16µM* | 1% |
| O=C(NCCc1csc(-c2cccc(F)c2)n1)c1cccs1 | . | 16µM* | 7% | ? | 4% |
| CC(C)Oc1ccc(C(=O)NCCc2csc(-c3cccc(F)c3)n2)cc1 | . | 0% | 0% | -25% | -2% |
| O=c1c([N+](=O)[O-])cn(Cc2ccccc2)c(=O)n1Cc1ccccc1 | -6% | ? | . | ? | . |
| CCc1cccc(NC(=O)CCS(=O)(=O)c2ccc(Br)cc2)c1 | 2% | 29µM* | 0% | 23µM* | . |
| COc1cc(NC(=O)CCS(=O)(=O)c2ccc(Br)cc2)cc(OC)c1 | . | ? | -4% | -25% | -1% |
| Cc1nc2c(-c3ccc(Cl)cc3)cnn2c(N)c1-c1ccc(F)cc1 | -16% | ? | -52% | ? | . |
| Cc1nc2c(-c3ccc(F)cc3)cnn2c(N)c1-c1ccccc1 | 3.2µM* | ? | 12% | ? | . |
| CC(C)CN(CC(C)C)C(=O)CCCC(=O)N(CC(C)C)CC(C)C | 2% | 16µM* | -1% | ? | -1% |
| CC(=O)OCC1OC(C#Cc2ccc(F)cc2F)C=CC1OC(C)=O (centres undefined) | . | . | . | . | -1%[21 µM] |
| CC(C)=CCc1c(O)cc(O)c2c1OC(c1ccc(O)cc1)CC2=O (centres undefined) | -6% | ? | . | ? | . |
